What was measured:
[1] = test system: LPS-induced TNF-alpha release in PBMCs; assay: TNF-alpha inhibition assay, pig PBMCs; details: tested form: Na salt
Procedure: (§1) PMBCs were isolated from human buffy coats or animal whole blood (EDTA-treated). Buffy coats from anonymized healthy adult blood donors were obtained from the Blood Bank of the National University Hospital Copenhagen in accordance with national legislation. Whole blood from mice (obtained from Charles River) was sampled at the animal facility at LEO Pharma and whole blood from pigs was sourced from ScanTox. Test compounds and PBMCs were incubated with 1 µg/ml LPS (Sigma) overnight at 37 °C in HEPES and Glutamax-containing RPMI medium supplemented with either 0.5% human serum albumin (human PBMCs) or 10% fetal bovine serum (mouse and pig PBMCs) and penicillin/streptomycin. TNF-alpha was measured using AlphaLISA (Perkin Elmer).
(§2) IC50 of test compounds was determined by 10-point titrations in duplicates. IC50 values and other parameters were calculated by sigmoidal curve fitting in Assay Explorer.

Amino acid sequences for entries named in this document (tags omitted). Residues count along the entry.
UniProt P08235, whole entry: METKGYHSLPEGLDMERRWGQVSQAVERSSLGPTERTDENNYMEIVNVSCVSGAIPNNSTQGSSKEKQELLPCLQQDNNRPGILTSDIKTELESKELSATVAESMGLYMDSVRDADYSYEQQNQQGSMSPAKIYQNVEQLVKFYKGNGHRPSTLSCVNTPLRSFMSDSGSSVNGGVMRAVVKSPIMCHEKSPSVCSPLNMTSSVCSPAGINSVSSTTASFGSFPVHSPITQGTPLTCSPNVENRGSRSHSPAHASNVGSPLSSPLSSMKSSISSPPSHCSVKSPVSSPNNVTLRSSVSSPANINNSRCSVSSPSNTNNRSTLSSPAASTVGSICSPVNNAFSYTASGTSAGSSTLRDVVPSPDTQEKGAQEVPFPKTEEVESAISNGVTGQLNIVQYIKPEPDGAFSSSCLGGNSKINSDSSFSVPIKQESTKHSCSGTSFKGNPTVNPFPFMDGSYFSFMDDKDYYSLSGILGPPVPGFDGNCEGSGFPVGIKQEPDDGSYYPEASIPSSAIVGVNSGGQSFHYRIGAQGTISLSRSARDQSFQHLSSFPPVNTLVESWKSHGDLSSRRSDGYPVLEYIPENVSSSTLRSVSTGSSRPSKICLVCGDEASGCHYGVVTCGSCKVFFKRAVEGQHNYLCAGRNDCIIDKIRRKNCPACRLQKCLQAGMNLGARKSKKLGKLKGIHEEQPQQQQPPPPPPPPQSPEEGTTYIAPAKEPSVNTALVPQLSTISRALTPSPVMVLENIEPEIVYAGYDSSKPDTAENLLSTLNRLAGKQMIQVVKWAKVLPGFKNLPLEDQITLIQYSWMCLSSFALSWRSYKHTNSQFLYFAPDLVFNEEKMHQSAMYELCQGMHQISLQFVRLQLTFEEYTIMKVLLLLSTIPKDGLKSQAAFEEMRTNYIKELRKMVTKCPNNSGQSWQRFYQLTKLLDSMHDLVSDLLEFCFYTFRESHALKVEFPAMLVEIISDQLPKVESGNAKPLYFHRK
UniProt P08235, 726-964 limits assumed: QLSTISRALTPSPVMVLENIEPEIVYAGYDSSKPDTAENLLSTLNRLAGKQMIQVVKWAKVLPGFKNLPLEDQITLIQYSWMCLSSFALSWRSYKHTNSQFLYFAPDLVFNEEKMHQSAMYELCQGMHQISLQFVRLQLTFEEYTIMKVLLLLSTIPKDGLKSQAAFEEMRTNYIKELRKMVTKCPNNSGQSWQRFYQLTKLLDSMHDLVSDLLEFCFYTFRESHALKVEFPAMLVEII
UniProt P04150, whole entry: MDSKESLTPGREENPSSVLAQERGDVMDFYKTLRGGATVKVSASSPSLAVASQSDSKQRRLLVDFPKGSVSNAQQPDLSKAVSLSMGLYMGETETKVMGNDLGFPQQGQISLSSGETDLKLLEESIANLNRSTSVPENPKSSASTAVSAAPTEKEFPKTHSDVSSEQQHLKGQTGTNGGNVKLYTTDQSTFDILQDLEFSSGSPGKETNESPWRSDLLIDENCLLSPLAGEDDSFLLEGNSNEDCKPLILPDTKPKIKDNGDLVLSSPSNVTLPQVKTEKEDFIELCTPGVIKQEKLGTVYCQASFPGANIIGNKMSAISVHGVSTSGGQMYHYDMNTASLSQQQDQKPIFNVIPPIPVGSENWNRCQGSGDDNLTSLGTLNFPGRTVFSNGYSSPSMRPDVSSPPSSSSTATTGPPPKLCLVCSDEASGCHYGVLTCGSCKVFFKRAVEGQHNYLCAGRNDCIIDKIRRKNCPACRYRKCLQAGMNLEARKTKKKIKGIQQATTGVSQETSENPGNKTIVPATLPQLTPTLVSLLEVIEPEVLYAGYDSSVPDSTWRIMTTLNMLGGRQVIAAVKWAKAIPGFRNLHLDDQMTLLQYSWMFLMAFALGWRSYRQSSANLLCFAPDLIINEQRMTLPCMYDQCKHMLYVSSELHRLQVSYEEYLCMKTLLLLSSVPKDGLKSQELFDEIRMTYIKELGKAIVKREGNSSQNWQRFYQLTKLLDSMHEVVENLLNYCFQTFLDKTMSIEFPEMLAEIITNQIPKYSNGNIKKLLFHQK

[2] = target: mineralocorticoid receptor (MR) (Homo sapiens, UniProt P08235); assay: MR agonist assay, MR-luciferase reporter cells; details: 24 h incubation; 'in contrast' = unlike LEO 134310, which gave no significant activation; tested form: Na salt
[3] = test system: LPS-induced TNF-alpha release in PBMCs; assay: TNF-alpha inhibition assay, mouse PBMCs; details: tested form: Na salt
Procedure: as §1, §2

[4] = target: human Mineralocorticoid Receptor (Homo sapiens, UniProt P08235); assay: MR antagonist assay, MR reporter assay; details: tested form: Na salt
[5] = Compound concentration in dermis, human skin explants; details: after dosing LEO 134310, human skin explants, 24 h; tested form: Na salt
Procedure: NativeSkin models (NS002) were purchased from Genoskin, France. Human skin samples from abdominal reduction surgery were obtained by Genoskin from donors upon written informed consent. Full ethical approval for the study protocol was obtained from the French ethical research committee (Comité de Protection des Personnes), and authorization was given by the French Ministry of Research. The study was conducted according to the Declaration of Helsinki. 8 mm punch biopsies were excised and embedded in a fibrin-based matrix in transwells and a silicone ring was firmly attached to the surface covering the outer edge of the skin biopsy to prevent lateral diffusion of topically applied formulations. […]
The concentrations of the compounds in dermis were determined from skin biopsies from the human skin explants. […] After homogenization, the samples were diluted, centrifuged and precipitated with acetonitrile containing internal standard (IS), and the compounds were thereafter quantified by means of liquid chromatography-tandem mass spectrometry (LC-MS/MS) using an AB Sciex 5500 or 6500 QTRAP. Calibration curves were prepared by spiking the analytes in blank homogenate, and a generic IS were used in quantification. The dermis micro molar concentrations were calculated assuming 1 gram of skin tissue equal to 1 mL.

[6] = test system: 8 ion channels, 40 kinases, 2 phosphatases, up to 163 G-protein coupled receptors; assay: Off-target panels (Eurofins IonChannelProfiler, KinaseProfiler, GPCRProfiler); details: 10 µM; tested form: Na salt
[7] = target: T1, GR (Homo sapiens, UniProt P04150); assay: Transactivation assay, MMTV promoter luciferase in HeLa cells; details: read-out: Transactivation EC50, 20 h, geometric mean, tested form: Na salt
[8] = test system: LPS-induced TNF-alpha release in PBMCs; assay: TNF-alpha inhibition assay, human PBMCs; details: tested form: Na salt
Procedure: as §1, §2

[9] = test system: PPAR-alpha, LXR-beta, RAR-alpha, RXR-alpha, ER-alpha, PR, AR, ER-beta and TR; assay: Selectivity screening on nuclear receptors, radioligand binding (CEREP); details: 10µM; greater than 25% displacement considered significant; tested form: Na salt
Procedure: Selectivity screening on nuclear receptors – Studies were performed at CEREP using their proprietary assays for human PPARalpha, LXRbeta, RARalpha, RXRalpha, ERalpha, ERbeta, progesterone receptor, androgen receptor and thyroid hormone receptor employing specific, radiolabeled agonist ligands. Interactions leading to greater than 25% displacement of the radiolabeled agonist ligand were considered significant. Concentrations of LEO 134310 and LEO 134998 were 10µM.

[10] = target: T1, GR; assay: Transrepression assay, PMA-induced MMP1 promoter luciferase in HeLa cells; details: tested form: Na salt

Activation of MR (luciferase activity) [2]: did not activate MR either | Antagonist activity on MR [4]: no antagonist activity on MR | Dermis concentrations of metabolite relative to parent [5]: comparable to parent | Off-target activity in ion channel, kinase, phosphatase and GPCR panels [6]: no off-target activity was identified | EC50 [7]: 560 nM | Interaction with nine nuclear hormone receptors in specific binding assays [9]: no significant interaction | Transrepression Emax ([10]; PMA-induced MMP1 promoter, HeLa cells): 98% | Loss of potency in the transrepression assay compared to LEO 134310 [10]: about 40 fold
Compound: C[C@H](NC(=O)[C@H]1CCCO1)[C@H](Oc1ccc(C(=O)O[C@H]2CCCN(C(=O)[C@@H](CO)CC(=O)O)C2)cc1)c1ccc(C2CC2)cc1
Inhibition of LPS-induced TNF-alpha release Emax [1]: 93% | Inhibition of LPS-induced TNF-alpha release Emax [3]: 100% | Inhibition of LPS-induced TNF-alpha release Emax [8]: 75%

Source: paper PMC8795149, “Characterization of a novel non-steroidal glucocorticoid receptor agonist optimized for topical treatment” (Scientific Reports, 2022)
